Experimental data taken from publication PMC4129416, “YLT192, a Novel, Orally Active Bioavailable Inhibitor of VEGFR2 Signaling with Potent Antiangiogenic Activity and Antitumor Efficacy in Preclinical Models” (Scientific Reports, 2014).

Test: Single-dose toxicity of clinical VEGFR2 inhibitors (FDA data)
Settings: rats; MTD 500 mg/kg vs NOAEL >3000 mg/kg

Row | SMILES | MTD as share of the NOAEL value for YLT192 [%]
1 | CNC(=O)c1cc(Oc2ccc(NC(=O)Nc3ccc(Cl)c(C(F)(F)F)c3)cc2)ccn1 [sorafenib] | 17
2 | CCN(CC)CCNC(=O)c1c(C)[nH]c(/C=C2\C(=O)Nc3ccc(F)cc32)c1C [sunitinib] | 17
